{"source": "paper PMC8876255", "about": "(Bioorganic & medicinal chemistry letters, 2021)", "test_system": "MDA-MB-231 cells", "experiment": "Cancer cell viability assay", "assay_type": "cell-based", "conditions": "relative to JMS-053, MDA-MB-231"}
{"compound": "N=C1C(=O)NC(=O)c2cc(-c3ccc(OCCCCNC(=O)CC45CC6CC(CC(C6)C4)C5)cc3)sc21", "note": "[Compound 7a]", "values": [{"measurement": "fold increase in cytotoxicity in a breast cancer cell line", "result": "ca. 5 fold"}]}
